# Source: PubChem BioAssay (National Center for Advancing Translational Sciences (NCATS))
# miR-21 reporter: miR-21 reporter, rising signal | HeLa miR-21 FLuc reporter, luciferase, 48 h | Potency, µM (highest dose often 38.3 µM), for inactives: at the top dose reporter change, positive = more light | 340,000 tested, under 10 active | AID 2288; active = well fitted rising curve with a large enough effect; inconclusive = small, poorly fitted or top-dose-only effect; inactive = no such curve, though single readings can be large or run the other way;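 further: % of control where 0% means no effect; miR-21 action dims this reporter so a rising signal means less miR-21 action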
#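 Compounds were titrated across several concentrations (up to approximately 40 uM) and incubated 48 hours with HeLa miR-21-FLuc reporter cells (miR-21 target sequence downstream of FLuc, endogenous miR-21). Readout was firefly luciferase luminescence after lytic detection reagent.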
# PINK1 modulator: PINK1 expression modulation | PINK1 immunofluorescence, high-content cytometry, 24 h | Potency, µM (titrated, usually from 76.6 µM), inactives show at the highest dose activation (PINK1 increase), usual class: activators | actives 0.2% (n = 410,000); active means well fitted activation curve with a large enough effect; inconclusive means small, poorly fitted or top-dose-only effect; cell line not stated here; further: potency means the concentration at half of the fitted maximal effect; % of control where 0% means no effect; nearly all actives have a fitted effect of over 65% in size
#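 Compound titrations (5 concentrations, 24 h) on a stable cell line; DMSO and CCCP controls. Endpoint: fixed-cell PINK1 immunofluorescence with mitochondrial, cell and nuclear markers, scanned by microplate cytometer.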
# Giardia killer: Giardia lamblia killing; Giardia lamblia trophozoite viability; actives 0.15% (n = 340,000); activity change, % at 7.66 µM, hits read low; in the data active means activity change below about -80%; inconclusive means between about -30% and that limit;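 further: parasites exposed to compound for two days anaerobically before the ATP read; on the % scale 0 is the no-effect control and ±100 the full control effect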
#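 Trophozoites 100 cells/well + cpd; 48 hrs, 37 deg C, anaerobic. ATPLite 1-Step added, 15-30 min RT, luminescence read (ATP-based viability).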
# ERG Ets-DNA blk: inhibitors of human ERG Ets domain-DNA interaction. actives 0.028% (n = 370,000). fluorescence polarization, His-ERG Ets domain / labelled DNA. AID 624246. Potency, µM (top dose mostly 76.9 µM), without a hit: at the highest dose FP activity, negative = inhibition, most hits filed as inhibitors; active means well fitted inhibition curve with a large enough effect in the polarisation, with a control signal flat; inconclusive means small, poorly fitted or top-dose-only effect, or effect the other way, or a change in a side signal; inactive means no such curve, though single readings can be large or run the other way; the % refers to the polarisation;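 further: polarization taken with two DNA probes labelled with fluorescein and Texas red; potency means the concentration at half of the fitted maximal effect; % of control where 0% means no effect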
#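 His-tagged ERG Ets domain (1 uM in the protein solution; 300mM KCl, 50mM Tris-HCl, 1mM EDTA, 1mM DTT, pH 7.5) received compound, then a probe mix of 5 nM fluorescein-DNA and 100nM Texas-615-DNA. Fluorescence polarization was read for both dyes.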
# 12-LOX inh: ALOX12 (human) lipoxygenase inhibition | actives 1.1% (n = 580,000) | purified 12hLO, xylenol orange hydroperoxide absorbance | Potency, µM (titrated, usually from 108 µM), inactives show top-dose activity change, negative = inhibition, actives largely listed as inhibitors; further: potency means the concentration at half of the fitted maximal effect; on the % scale 0 is the no-effect control and ±100 the full control effect
#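 Purified human 12hLO at 150 nM in 25 mM Hepes, 0.01% Triton X-100, pH 7.0, preincubated 15 min at room temperature with compound. Reaction started with 40 uM arachidonic acid, 30 min at room temperature. Hydroperoxide measured by Fe-xylenol orange, 573/405 nm absorbance ratio.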
# PTHR1 agonist: agonists of human PTHR1 parathyroid hormone receptor; actives 0.075% (n = 410,000); HEK293 GP2 PTHR1 cells, GloSensor cAMP luminescence, 1 h; Potency, µM (series often up to 115 µM), for inactives: top-dose activation, usual class: activators; AID 743266; Q03431; further: potency means the concentration at half of the fitted maximal effect; nearly all actives have a fitted effect of over 55% in size
#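 HEK-293-derived GP2 cells expressing PTHR1 and a GloSensor cAMP reporter, 3,000/well, plated overnight, given luciferin plus IBMX (each 0.5 mM as added) for 1 h at 37 °C, then compound for 1 h at 37 °C. Luminescence was read after 15 min at room temperature.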
# Numbers without * were called inactive; i = inactive; ? = inconclusive; nt = no result given; ! = not confirmed by another sample; [ ] = remark or other dose. Rows were chosen to be rich in hits. Some 1.3% of all compounds tested hit in one or more screens of this group. Unless noted, the call rests on the fitted dose curve; in most records, active means well fitted curve in the direction sought with a large enough effect; inconclusive means small, poorly fitted or top-dose-only effect, or another doubt; inactive means no such curve, though single readings can be large; an effect the other way counts as inactive or inconclusive.
entry	compound	miR-21 reporter	PINK1 modulator	Giardia killer
1	Cc1c(P(=S)(c2ccccc2)c2ccccc2)[n+]2ccccc2n1CCc1ccccc1	nt	25µM*	nt
2	CCNC(=O)N1Cc2ccccc2-n2nncc2C1	nt	0%	nt
3	O=C(Cc1cccs1)N1Cc2ccccc2-n2nncc2C1	nt	2%	nt
4	CC1=C(O)C(=O)C=C2C1=CC=C1C2(C)CCC2(C)C3CC(C)(C(=O)O)CCC3(C)CCC12C (stereo not drawn)	nt	-2%	?
5	Cn1ncnc2c(=O)n(C)c(=O)nc1-2	?	-4%	-88*
6	Cc1ccc(-c2nc3c(=O)n(C)c(=O)nc-3n(C)n2)cc1	nt	-1%	-95*
7	O=C(Nc1ccc(Br)cc1)c1cc(Br)cc(Br)c1O	nt	nt	nt
8	O=C(Nc1ccc(Br)cc1C(=O)c1ccccc1)c1ccccc1	-9%	5%	nt
9	C=CCN(C)C[C@H]1CN2CC[C@H]1C[C@@H]2CNS(=O)(=O)c1ccc(C)cc1	nt	nt	nt
10	Cc1nc(-c2cccs2)cc([C@H]2CN3CC[C@H]2C[C@@H]3COC(=O)Nc2ccc(C(C)C)cc2)n1	nt	nt	nt
11	COCC(=O)NC[C@H]1C[C@@H]2CCN1C[C@@H]2c1cc(-c2ccccc2OC)nc(C)n1	nt	nt	nt
12	COc1ccccc1-c1cc([C@H]2CN3CC[C@H]2C[C@@H]3COC(=O)Nc2ccc(C(C)C)cc2)nc(C)n1	nt	nt	nt

entry	ERG Ets-DNA blk	12-LOX inh	PTHR1 agonist
1	nt	-87%	-86%
2	nt	-29%	-22%
3	nt	40µM*	-54%
4	nt	4.5µM*	i
5	-13%	?	-58%
6	nt	nt	nt
7	nt	40µM*	nt
8	-1%	0%	i
9	nt	33%[176 µM]	nt
10	nt	45µM*	nt
11	nt	50%[176 µM]	nt
12	nt	45µM*	nt

# (more compounds)
entry	compound	miR-21 reporter	PINK1 modulator	Giardia killer
13	O=C(c1ccc(F)cc1)N1C[C@@H]2C[C@H](C1)c1ccc(C3CCCCC3)c(=O)n1C2	nt	nt	nt
14	Cc1[nH]c2ccc(C34CC5CC(CC(C5)C3)C4)cc2c1CCN	nt	nt	nt
15	Cc1[nH]c2ccccc2c1CCN	nt	0%	8
16	O=[N+]([O-])c1cccc2c([As](=O)(O)O)cccc12	13%	2%	-94*
17	COc1cc(C(CN)CC(=O)O)ccc1O (stereo not drawn)	-2%	0%	26
18	CC1=C(C(=O)O)N2C(=O)C(NC(=O)CCCC(=O)O)C2SC1 (stereo not drawn)	-12%	-1%	0
19	C[C@@H]1OC(=O)[C@H]2C[C@H]3CCCC[C@@H]3[C@@H](/C=C/[C@H]3CCC[C@H](C)N3C)[C@@H]12	nt	nt	nt
20	C=CCN1C(=O)NC(=O)/C(=C/c2ccoc2)C1=O	0%	-1%	7
21	O=C1NC(=O)N(c2cccc(Br)c2)C(=O)/C1=C/c1ccsc1	0%	5%	2
22	O=C1NC(=O)N(c2ccc(Br)cc2)C(=O)/C1=C/c1ccsc1	5%	6%	-8
23	CCN1CCN(C(=O)Cc2ccc(Nc3ncc(F)c(Nc4ccc(C(=O)Nc5ccccc5Cl)cc4)n3)cc2)CC1	nt	nt	nt
24	CC(C)c1ccc(N2C(=O)NC(=O)/C(=C/C=C/c3ccco3)C2=O)cc1	-11%	-2%	-3

entry	ERG Ets-DNA blk	12-LOX inh	PTHR1 agonist
13	nt	11%[176 µM]	nt
14	nt	32µM*	nt
15	2%	-6%	i
16	2%	?	i
17	-8%	-28%	-21%
18	4%	28µM*	i
19	nt	4%	nt
20	-14%	?	i
21	21%	45µM*	-28%
22	31%	?	-17%
23	nt	3.9µM*	nt
24	16%	45µM*	-42%

# Later entries
entry	compound	miR-21 reporter	PINK1 modulator	Giardia killer
25	Cc1ccc(N2C(=O)NC(=O)/C(=C/C=C/c3ccco3)C2=O)cc1	17%	-3%	1
26	CCCCN1C(=O)/C(=C/C=C/c2ccco2)C(=O)NC1=S	-3%	1%	-6
27	O=C1NC(=O)N(c2ccccc2)C(=O)/C1=C\C=C\c1ccccc1	0%	0%	-6
28	CCc1ccc(N2C(=O)NC(=O)/C(=C\C=C\c3ccco3)C2=O)cc1	6%	0%	6
29	S=P(NCCNP(=S)(N1CC1)N1CC1)(N1CC1)N1CC1	nt	0%	-2
30	CCCS(=O)(=O)N1C[C@@H]2C[C@H](C1)c1c(-c3cccc(C#N)c3)ccc(=O)n1C2	nt	nt	nt
31	O=C1NC(=O)C(=Cc2csc3ccccc23)C(=O)N1	-3%	7%	1
32	Cn1cc(C=C2C(=O)NC(=O)NC2=O)c2ccccc21	1%	-1%	23
33	CCCCC[C@H]1C(=O)O[C@H](C)[C@H](NC(=O)c2cccc(NC=O)c2O)C(=O)O[C@@H](C)[C@@H]1OC(=O)CC(C)C	nt	nt	nt
34	C[C@]12CC[C@@H](O)CC1=CC(=O)C1C2CC[C@]2(C)C(=O)[C@H](O)CC12 (stereo partly drawn)	nt	2%	nt
35	CCc1ccccc1N1C(=O)/C(=C/c2ccc(N3CCN(C)CC3)o2)C(=O)NC1=S	-13%	2%	2
36	Cc1cccc(N2C(=O)/C(=C/c3ccc(N4CCN(C)CC4)o3)C(=O)NC2=S)c1C	-3%	9%	-5

entry	ERG Ets-DNA blk	12-LOX inh	PTHR1 agonist
25	?	?	-17%
26	105%	6.3µM*	-4%
27	2%	25µM*	-27%
28	84%	0%	-43%
29	9%	-17%	-52%
30	nt	0%[176 µM]	nt
31	-5%	40µM*	i
32	-1%	0%	-22%
33	nt	0%	nt
34	nt	23%	22%
35	44%	?	-2%
36	82%	45µM*	-17%

# More structures.
entry	compound	miR-21 reporter	PINK1 modulator	Giardia killer
37	Cc1cccc(-n2c(/C=C/c3ccccc3O)nc3ccccc3c2=O)c1	?	0%	nt
38	O=c1c2ccccc2nc(/C=C/c2ccc([N+](=O)[O-])o2)n1-c1ccc(O)cc1	?	40µM*	-85*
39	Cc1cccc(-n2c(/C=C/c3ccc([N+](=O)[O-])o3)nc3ccccc3c2=O)c1	-10%	10%	-88*
40	COc1cccc(-n2c(/C=C/c3cccc(C)c3)nc3ccccc3c2=O)c1	1%	4%	nt
41	Cc1cccc(-n2c(/C=C/c3ccco3)nc3ccccc3c2=O)c1	nt	nt	nt
42	OC12C3C4CC5C6C4C1C6C(C53)N2CCc1cccc(F)c1 (stereo not drawn)	nt	nt	nt
43	CCC(CC)c1cc([C@H]2CN3CC[C@H]2C[C@@H]3CNC(=O)Cc2cccs2)nc(-c2ccncc2)n1	nt	nt	nt
44	N[C@H](CCP(=O)(O)O)C(=O)O	nt	nt	nt
45	COc1ccc2c(c1OC)C(=O)OC2c1c(O)n(C2CCCCC2)c(=O)[nH]c1=O (stereo not drawn)	1%	3%	6
46	Fc1ccc(C(OCCN2CCN(CCCc3ccccc3)CC2)c2ccc(F)cc2)cc1	nt	2%	11
47	c1ccc(CCCN2CCN(CCOC(c3ccccc3)c3ccccc3)CC2)cc1	nt	-1%	-9
48	C#C[C@H]1CN2CC[C@H]1C[C@@H]2CNS(=O)(=O)Cc1ccccc1	nt	nt	nt

entry	ERG Ets-DNA blk	12-LOX inh	PTHR1 agonist
37	-1%	-42%	-26%
38	41%	-21%	-16%
39	-5%	-34%	-28%
40	28µM*	?	-24%
41	nt	25µM*	nt
42	nt	0%	nt
43	nt	36%	nt
44	nt	3.5µM*!	nt
45	6%	?	i
46	nt	2.7µM*!	-92%
47	-18%	?	-68%
48	nt	35%[176 µM]	nt

# 3 of the compounds above, field by field:
42	OC12C3C4CC5C6C4C1C6C(C53)N2CCc1cccc(F)c1 (stereo not drawn)
  miR-21 reporter = nt; PINK1 modulator = nt; Giardia killer = nt; ERG Ets-DNA blk = nt; 12-LOX inh = 0%; PTHR1 agonist = nt

43	CCC(CC)c1cc([C@H]2CN3CC[C@H]2C[C@@H]3CNC(=O)Cc2cccs2)nc(-c2ccncc2)n1
  miR-21 reporter = nt; PINK1 modulator = nt; Giardia killer = nt; ERG Ets-DNA blk = nt; 12-LOX inh = 36%; PTHR1 agonist = nt

44	N[C@H](CCP(=O)(O)O)C(=O)O
  miR-21 reporter = nt; PINK1 modulator = nt; Giardia killer = nt; ERG Ets-DNA blk = nt; 12-LOX inh = 3.5µM*!; PTHR1 agonist = nt
